For test [1], the target named is METTL3/METTL14 (Homo sapiens, UniProt Q86U44). As to the kind of experiment: METTL3-14 standard enzyme assay (3H-SAM flashplate scintillation). The settings on record: read-out: METTL3 IC50; METTL3/METTL14 2.5 nM, RNA 100 nM, 3H-SAM 100 nM, 30 min. The procedure: METTL3-14 Standard Enzyme Assay
(§1) Assays were performed in a 25 μl-volume in 384-well V-bottom polypropylene microplates (Greiner Bio-One, cat. No. 781280) at ambient temperature. Optimized 1× assay buffer was 20 mM HEPES pH 7.5, 50 mM KCl, 250 μM MgCl2, 1 mM DTT, 0.01% Tween, 0.01% BSG, 0.004 U/μl RNAseOUT (cat. No. 10777019, ThermoFisher Scientific, Waltham, Mass.). For compound screening METTL3/METTL14 (final concentration, f.c.=2.5 nM) was added using a Multidrop Combi (ThermoFisher Scientific, Waltham, Mass.) and preincubated for 5 min. Reactions were started by adding 3′ biotinylated RNA (UCUGGACUAAA-biotin) (f.c.=100 nM) and 3H-SAM (f.c.=100 nM) substrates. Reactions proceeded for 30 minutes and were quenched with excess non-radioactive SAM (f.c.=15 μM). The reactions were then transferred to streptavidin-coated flashplates and incubated for 2 hours at 25° C. Following two washing cycles with 0.1% Tween-20, the plates were sealed and read on a TopCount (PerkinElmer, Waltham, Mass.) plate-based scintillation counter. For determination of kinetic parameters, reaction times were optimized so that measurements were taken during the initial velocity phase of the reaction.

Amino acid sequences for entries named in this document (tags omitted).
UniProt Q86U44, whole entry: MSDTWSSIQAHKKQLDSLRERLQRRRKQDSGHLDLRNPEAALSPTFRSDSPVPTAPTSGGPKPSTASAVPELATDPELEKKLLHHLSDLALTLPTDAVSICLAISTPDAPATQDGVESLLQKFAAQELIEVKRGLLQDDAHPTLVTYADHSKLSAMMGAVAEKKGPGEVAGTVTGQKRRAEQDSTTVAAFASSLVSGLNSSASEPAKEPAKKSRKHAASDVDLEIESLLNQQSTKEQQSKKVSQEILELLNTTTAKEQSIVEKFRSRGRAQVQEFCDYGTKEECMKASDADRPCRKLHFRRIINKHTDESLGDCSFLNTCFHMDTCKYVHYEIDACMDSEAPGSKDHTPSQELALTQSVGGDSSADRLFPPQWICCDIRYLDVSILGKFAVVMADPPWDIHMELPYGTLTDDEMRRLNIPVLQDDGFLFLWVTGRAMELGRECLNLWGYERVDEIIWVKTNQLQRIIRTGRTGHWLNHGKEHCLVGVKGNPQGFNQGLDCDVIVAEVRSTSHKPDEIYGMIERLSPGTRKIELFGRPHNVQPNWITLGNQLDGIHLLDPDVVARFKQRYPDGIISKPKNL
UniProt O14744, whole entry: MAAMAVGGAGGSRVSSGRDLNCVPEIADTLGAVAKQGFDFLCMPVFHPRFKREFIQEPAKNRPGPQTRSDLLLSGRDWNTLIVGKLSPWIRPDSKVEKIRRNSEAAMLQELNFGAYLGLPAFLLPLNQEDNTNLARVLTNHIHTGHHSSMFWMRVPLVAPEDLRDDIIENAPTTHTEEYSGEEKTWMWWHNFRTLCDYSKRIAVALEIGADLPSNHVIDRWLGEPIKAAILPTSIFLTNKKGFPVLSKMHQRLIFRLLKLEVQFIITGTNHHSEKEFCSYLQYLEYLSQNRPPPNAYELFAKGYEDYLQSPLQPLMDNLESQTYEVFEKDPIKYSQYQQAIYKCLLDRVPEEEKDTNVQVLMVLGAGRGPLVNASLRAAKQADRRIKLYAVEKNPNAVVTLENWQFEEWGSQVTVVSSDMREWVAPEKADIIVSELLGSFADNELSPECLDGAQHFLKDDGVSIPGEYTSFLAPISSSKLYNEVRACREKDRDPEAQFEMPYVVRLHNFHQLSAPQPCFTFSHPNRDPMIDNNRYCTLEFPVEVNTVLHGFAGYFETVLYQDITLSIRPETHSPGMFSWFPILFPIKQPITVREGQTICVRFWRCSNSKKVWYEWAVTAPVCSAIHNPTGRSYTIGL
UniProt Q9UBP6, whole entry: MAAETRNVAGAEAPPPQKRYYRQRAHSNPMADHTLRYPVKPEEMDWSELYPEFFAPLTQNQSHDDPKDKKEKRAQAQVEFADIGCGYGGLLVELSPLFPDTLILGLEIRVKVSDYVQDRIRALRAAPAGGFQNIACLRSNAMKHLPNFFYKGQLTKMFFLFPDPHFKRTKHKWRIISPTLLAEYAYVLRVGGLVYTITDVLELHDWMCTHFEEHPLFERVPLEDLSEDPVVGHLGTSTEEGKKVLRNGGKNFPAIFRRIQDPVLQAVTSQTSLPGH
UniProt Q9BQA1, whole entry partner: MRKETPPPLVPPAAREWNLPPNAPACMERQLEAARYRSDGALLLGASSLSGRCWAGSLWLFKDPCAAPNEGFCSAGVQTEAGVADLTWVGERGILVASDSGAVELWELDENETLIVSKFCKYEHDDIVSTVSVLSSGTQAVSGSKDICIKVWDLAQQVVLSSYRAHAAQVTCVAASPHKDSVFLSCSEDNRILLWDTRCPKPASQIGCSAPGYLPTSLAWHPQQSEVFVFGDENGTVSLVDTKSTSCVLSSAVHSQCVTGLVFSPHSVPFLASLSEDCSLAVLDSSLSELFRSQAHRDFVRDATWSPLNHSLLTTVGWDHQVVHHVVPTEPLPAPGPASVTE
UniProt P57081, whole entry partner: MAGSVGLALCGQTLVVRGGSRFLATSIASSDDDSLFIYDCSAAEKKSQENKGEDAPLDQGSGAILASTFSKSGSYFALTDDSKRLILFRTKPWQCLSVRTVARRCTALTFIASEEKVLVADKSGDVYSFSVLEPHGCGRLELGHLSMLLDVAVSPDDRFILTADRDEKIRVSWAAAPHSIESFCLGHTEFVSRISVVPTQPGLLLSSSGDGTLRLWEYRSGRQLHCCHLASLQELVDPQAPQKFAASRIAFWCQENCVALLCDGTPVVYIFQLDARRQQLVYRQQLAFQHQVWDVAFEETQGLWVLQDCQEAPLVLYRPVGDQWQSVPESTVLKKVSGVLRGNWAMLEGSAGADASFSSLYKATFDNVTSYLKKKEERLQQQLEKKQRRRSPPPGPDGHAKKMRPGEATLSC
UniProt Q9HCE5, whole entry partner: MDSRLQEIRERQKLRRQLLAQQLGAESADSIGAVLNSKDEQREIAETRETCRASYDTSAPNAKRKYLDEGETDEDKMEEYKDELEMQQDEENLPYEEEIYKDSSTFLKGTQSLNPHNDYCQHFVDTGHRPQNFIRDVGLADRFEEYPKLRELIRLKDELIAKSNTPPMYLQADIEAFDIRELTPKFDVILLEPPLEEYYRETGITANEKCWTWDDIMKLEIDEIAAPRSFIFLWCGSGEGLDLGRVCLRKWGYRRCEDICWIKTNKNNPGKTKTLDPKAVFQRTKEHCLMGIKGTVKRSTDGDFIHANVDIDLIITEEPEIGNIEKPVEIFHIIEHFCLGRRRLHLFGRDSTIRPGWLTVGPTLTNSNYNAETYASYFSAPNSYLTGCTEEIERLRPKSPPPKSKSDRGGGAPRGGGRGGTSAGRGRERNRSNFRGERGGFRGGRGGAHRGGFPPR

Test [2] deals with PRMT5-MEP50 (Homo sapiens, UniProt O14744). The experiment in a line: PRMT5 assay (3H-SAM flashplate scintillation). Conditions: read-out: PRMT5 IC50; PRMT5-MEP50 2.5 nM, histone H4 peptide 100 nM, 3H-SAM 250 nM, 60 min. The method, then: Assays were performed in a 25 μl-volume in 384-well V-bottom polypropylene microplates (Greiner Bio-One, cat. No. 781280) at ambient temperature. Optimized 1× assay buffer was 20 mM Tris-HCl pH 8.0, 1 mM DTT, […]. For compound screening PRMT5-MEP50 (final concentration, f.c.=2.5 nM) was added using a Multidrop Combi (ThermoFisher Scientific, Waltham, Mass.) and preincubated for 5 min. Reactions were started by adding 3′ biotinylated histone H4 peptide acetylated on serine 1 (Ac-[…]-Biotin) (f.c.=100 nM) and 3H-SAM (f.c.=250 nM) substrates. Reactions proceeded for 60 minutes and were quenched with excess non-radioactive SAM (f.c.=15 μM). The reactions were then transferred to streptavidin-coated flashplates and incubated for 2 hours at 25° C. Following two washing cycles with 0.1% Tween-20, the plates were sealed and read on a TopCount (PerkinElmer, Waltham, Mass.) plate-based scintillation counter. For determination of kinetic parameters, reaction times were optimized so that measurements were taken during the initial velocity phase of the reaction.

In test [3] the target is METTL1/WDR4 (Homo sapiens, UniProt Q9UBP6). The experiment in a line: METTL1 assay (3H-SAM flashplate scintillation). The settings on record: read-out: METTL1 IC50; METTL1/WDR4 6.25 nM, RNA 25 nM, 3H-SAM 60 nM, 20 min. The method, then: as §1, with “METTL1/WDR4” for “METTL3/METTL14”, “f.c.=6.25” for “f.c.=2.5”, “([…]-biotin) (f.c.=25” for “(UCUGGACUAAA-biotin) (f.c.=100”, “(f.c.=60” for “(f.c.=100”, “20” for “30”

For test [4], the system named is m^6 A in cellular mRNA of MOLM-13 cells. The experiment in a line: m^6 A-mRNA LC-MS/MS assay (m^6 A cellular assay). The settings on record: read-out: m^6A IC50, 24 hours incubation, LC-MS/MS of m^6 A/A in mRNA. The method, then: m^6 A-mRNA LC-MS/MS Assay
5×10^6 MOLM-13 (DSMZ) cells were seeded into 10 cm dishes in RPMI 1640 media containing 10% fetal bovine serum and placed in a humidified tissue culture incubator at 37° C. overnight. Compounds were resuspended in 100% DMSO and dosed into each dish at a fixed concentration to comprise an 8-point dose response with a 4-fold serial dilution ranging from 25 μM to 1.5 nM in 0.25% DMSO final and allowed to incubate for 24 hours in a humidified tissue culture incubator at 37° C. Cells were harvested by centrifugation followed by mRNA extraction using DTRECT Dynabeads mRNA DTRECT kit (Life Technologies). mRNA was quantified on NanoDrop spectrophotometer (Thermo Fisher Scientific) and digested into single nucleosides using Nucleoside Digestion Mix (New England Biolabs). Nucleosides are quantified with retention time on a BEH […] column (Waters) and the nucleoside-to-base ion mass transition of 282.1-150.1 (m^6 A) and 268-136 (A) on an API 6500+ triple quadrupole mass spectrometer. Quantification is performed in comparison with the standard curve, obtained from pure nucleoside standards (Selleck Chemicals) running with the same batch of samples. Percentage m^6 A in cellular mRNA is calculated as 100*(m^6 A/A).

Test [5] has as its system MOLM-13 cells. As to the kind of experiment: MOLM-13 48 Hour cell proliferation assay (Cell Titer-Glo). The settings on record: read-out: MOLM-13 48 Hour cell proliferation IC50. The method, then:
MOLM-13 48 Hour Cell Proliferation Assay
MOLM-13 (DSMZ) cells were seeded at 1000 cells per well in a volume of 44 μL in a Falcon 384-well tissue culture treated clear bottom microplate in RPMI 1640 media containing 10% fetal bovine serum using a Multidrop Combi (ThermoFisher Scientific). Cells were incubated overnight at 37° C. in a humidified tissue culture incubator. The Mosquito® HTS Liquid Handler was used to make a compound/media intermediate plate by aliquoting […] of compound from the initial compound dilution plate (concentrations ranging from 10.0 mM to 38.0 nM in 100% DMSO) into a V bottom 384-well screen matrix plate containing 49 µL of media containing the appropriate serum (50-fold dilution, 2% DMSO). […] The plate was read on an EnVision plate reader (Perkin Elmer) using the Ultra Sensitive Luminescence protocol. Data analysis was performed by normalizing the raw luminescence units to an average of the positive control values for staurosporine (100% cell death) and the negative control values for DMSO (0% cell death). An IC50 was calculated using a 4-parameter logistic nonlinear regression model in GraphPad Prism.
On the technique in general: ATP-based viability assays read luminescence as a measure of living cells.

As to `CNc1ccc2ccc(OCc3cncc(-n4cc(C5CCCC5)c5c(N)ncnc54)c3)cc2n1` [Compound I-58], the IC50 in test [1] was 10 to 100 nM; in test [2] it was more than 1000 nM; in test [3], more than 1000 nM; in test [4], 1000 to 10000 nM; in test [5], 1000 to 10000 nM.

For the origin of these results see patent publication US20220372040A1, “METTL3 MODULATORS” (Accent Therapeutics, Inc., priority 2020, published 2022).
